# Yeast mating assay 1: variants of the scFv Ab-14

Reference: Engelhart et al. 2022, doi:10.1038/s41597-022-01779-4. File: FLAb, binding data.

All variants were tested on one target, the spike HR2 peptide PDVDLGDISGINAS (SARS-CoV-2).

Parent scFv Ab-14: VH joined to VL by a (GGGGS)3 linker. Changes lie in the light chain CDRs alone.
VH: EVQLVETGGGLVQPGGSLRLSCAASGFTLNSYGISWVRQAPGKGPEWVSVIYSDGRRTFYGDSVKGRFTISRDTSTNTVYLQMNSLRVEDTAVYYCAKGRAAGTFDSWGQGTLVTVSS
VL: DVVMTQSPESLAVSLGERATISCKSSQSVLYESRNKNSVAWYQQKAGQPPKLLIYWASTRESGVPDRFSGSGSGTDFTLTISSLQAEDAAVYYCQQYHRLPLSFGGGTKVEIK

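The starting antibody came from a phage panning campaign against this peptide. Variants in AAYL50 differ from the parent at up to three CDR positions; double and triple changes were sampled at random. AlphaSeq pools MATa yeast showing the antibodies with MATalpha yeast showing the peptide. Pairs that bind mate more often; barcode pairs of the diploids are counted by sequencing. The ratio of observed to expected reads was calibrated, replicate by replicate, on BCL2-family standards whose Kd was known from biolayer interferometry. There are three technical replicates.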

Variants are written as CDR1, CDR2 and CDR3 of the light chain (limits as in the source). Parent: KSSQSVLYESRNKNSVA, WASTRES, QQYHRLPLS.
Affinities are written as log10 Kd with Kd in nM; a lower number is a better binder.
The mean shown is taken over the replicates in which the pair was detected.
"not detected" means that the variant was in the library but no mating with the target was seen in any replicate; the authors take this as a sign of poor binding, and no number exists.

CDR-L1	CDR-L2	CDR-L3	mean, log10 nM	replicates with signal
KSSQSWLYESRNKNSVA	WASTYES	QTYHRLPLS	not detected	0/3
KSSQSVLSESRNKNSVA	WCSTREC	QQYHRLPLS	2.72	2/3
KSSQSVLYESRNKDEVA	WSSTRES	QQYHRLPLS	3.26	1/3
KSSQSVLYESRNKNSVA	PASTSES	QQYHRLPLS	4.72	1/3
KSSQAVLYESRNKNSVA	WASTRES	QQYHRMPTS	1.08	3/3
KSSQSVLYESRNHNSVA	WASTRES	QQYHRLPLC	2.29	3/3
KSSQSVLYESPNQNSVA	WASTRES	PQYHRLPLS	not detected	0/3
KSSQSWLYESRNKNSVA	WASPRES	QQYHNLPLS	4.60	1/3
KSSQSSLYESRNKNSVA	MASTRES	QQYQRLPLS	not detected	0/3
MSSQSVLYESRNKNSVA	WASTRES	QQYHLLPKS	3.92	1/3
KSSQSSKYPSRNKNSVA	WASTRES	QQYHRLPLS	1.81	3/3
KSSQSVLYESREKNSVA	WTYTRES	QQYHRLPLS	3.14	3/3
KSPQSVCYESRCKNSVA	WASTRES	QQYHRLPLS	1.14	3/3
KSTQCVLYESRNKNSVA	WASTRES	VQYHRLPLS	not detected	0/3
KSCQSELYESRNKNVVA	WASTRES	QQYHRLPLS	not detected	0/3
KSSQSYLYESRNSNSVA	WASTREA	QQYHRLPLS	0.52	3/3
KSSQSVDYESRNKNSVA	WYSTWES	QQYHRLPLS	not detected	0/3
KQSQSVLYESRNRNSVA	WASTRES	QQYHRLRLS	3.85	2/3
KSSQSVLHESRNKNSVA	WASTRCS	QQYDRLPLS	1.24	3/3
KSSQSVLYESRNKNSVA	WIRTRYS	QQYHRLPLS	4.77	2/3
RSSQSGLYESRNKNSVA	WASGRES	QQYHRLPLS	2.34	2/3
KRSQFVLYESRNKNSVA	WASTREF	QQYHRLPLS	3.64	2/3
KSSQSVLYESRNKNSVA	WASAREQ	QTYHRLPLS	not detected	0/3
KSSQSVLYESRNSNSVA	WMSTREM	QQYHRLPLS	2.99	3/3
KSSQCVLYEQRNKNSVA	WASTRNS	QQYHRLPLS	3.13	2/3
KSSQSVDYESRNKPSVA	WASLRES	QQYHRLPLS	1.31	3/3
KSSQSVLYLSRNKNSVA	WASTREC	QQYHRFPLS	3.51	1/3
KSSQSVLYESYNKNSVA	WADTRES	QQYHRLPYS	not detected	0/3
KSSQSVLYESRNKNKVA	VASTRES	QEYHRLPLS	not detected	0/3
KSSQSVLNESKNKNSVA	WASTRES	QQYDRLPLS	0.83	3/3
KSSQSVLYESRNKTSVA	WAPTRES	MQYHRLPLS	4.54	2/3
KSSSEVLYESRNKNSVA	WASTRES	QQYHRLPLQ	1.31	3/3
KSSQSVLYESENKNSVH	WASTRES	QQYHRPPLS	not detected	0/3
KSSQSVLYESRNKNSVA	WASTDES	QQYHRLMLS	not detected	0/3
KSGMSSLYESRNKNSVA	WASTRES	QQYHRLPLS	0.89	3/3
KSSQSVLYESRNKNSVA	WASTTEY	QQYHRLPLI	not detected	0/3
KSSRSVLYESRNKNEVA	WSSTRES	QQYHRLPLS	2.61	1/3
KNSQSVLYASRNKQSVA	WASTRES	QQYHRLPLS	3.23	2/3
PSSNSVLYESRNKNSVA	WASTRES	QQYHPLPLS	not detected	0/3
KSSQSVLYESRNKNSVA	WASRRES	MQYDRLPLS	not detected	0/3
KSSQSVCYESRNKNSVA	WASHQES	QQYHRLPLS	not detected	0/3
KSSQSVLYCSRNKNSDA	WASTTES	QQYHRLPLS	not detected	0/3
KSSQIVLHEGRNKNSVA	WASTRES	QQYHRLPLS	1.79	3/3
KSSQSVLDESRNKNSVA	WASLRES	QQYKRLPLS	0.38	3/3
KSSWSVLYESRNNNSVA	WASTRES	QQYHRDPLS	1.11	3/3
KSRQSVLYESRNKNSVA	WASTAES	QQYHCLPLS	3.58	1/3
KSSQEVLYESRNKNSVA	MASTRES	QQYHRLPGS	0.93	3/3
KSLQSVLYESRNKNSVA	WASTNES	QLYHRLPLS	not detected	0/3
KSSASVLYESRIKNSVA	WAGTRES	QQYHRLPLS	2.91	2/3
KSSQSVLYESRNKNSVA	FAYTRES	QQYHRLPLS	2.06	3/3
KSSQSVLYISRNKNSVA	WASTRAS	QQYMRLPLS	1.69	3/3
KSSQSVLYFKRNKNSVA	WASTRES	QQYHRMPLS	3.16	3/3
KSSQSVLYESRFKNSNA	WALTRES	QQYHRLPLS	3.25	1/3
KSDQSVLYEGRNKNSVA	WASTRES	RQYHRLPLS	4.98	2/3
KSSQSVLYESHNKNSVA	WASTRKS	QQYHRLPCS	not detected	0/3
KSTQSVLYESRNKNSVA	WADTRES	QQYARLPLS	1.70	3/3
KSSQSVLYESCNKWSVA	WNSTRES	QQYHRLPLS	not detected	0/3
KSSQSVLYESRLKNSVA	WASTRES	QQYHPLPLS	not detected	0/3
KSSQSVLYRSRNKNSVA	WASPRES	QQYHRLPES	4.16	2/3
KMSQSVLYESRNKNSVA	WASTEES	QQYHRGPLS	not detected	0/3
KRLQSVLYESRNKNSVA	WASTRES	QQYHRLPLC	not detected	0/3
NSSQSQLYESRNKNSVA	WASTRES	QQYHELPLS	not detected	0/3
KSSQSALYESRNKNSVA	WYSTRES	QQYERLPLS	4.76	2/3
KSSQSVLYESRNKNSVA	WESTRES	QQYPRLPCS	not detected	0/3
KSSQSVLYESMNKNSVT	WASTRES	QQYHRLPLF	not detected	0/3
KSSQSVLYESRNKNSVA	WASKRES	QQYHYVPLS	not detected	0/3
KCSQSVLYESKNKNSVA	WASTRES	QQYHGLPLS	1.60	3/3
KSSMSNNYESRNKNSVA	WASTRES	QQYHRLPLS	2.26	3/3
KSSQSVLYESRRKNSVA	WASTRES	QQYHRLPGV	1.31	3/3
KFSTSVLYESENKNSVA	WASTRES	QQYHRLPLS	not detected	0/3

Excerpt, the final 7 entries:

CDR-L1	CDR-L2	CDR-L3	mean, log10 nM	replicates with signal
KSSQSVLYESRNKNSVA	WESTRES	QQYPRLPCS	not detected	0/3
KSSQSVLYESMNKNSVT	WASTRES	QQYHRLPLF	not detected	0/3
KSSQSVLYESRNKNSVA	WASKRES	QQYHYVPLS	not detected	0/3
KCSQSVLYESKNKNSVA	WASTRES	QQYHGLPLS	1.60	3/3
KSSMSNNYESRNKNSVA	WASTRES	QQYHRLPLS	2.26	3/3
KSSQSVLYESRRKNSVA	WASTRES	QQYHRLPGV	1.31	3/3
KFSTSVLYESENKNSVA	WASTRES	QQYHRLPLS	not detected	0/3

As a blank, each scFv also met three strains without target: over library AAYL50, 18% of these pairings were detected, typically at 4.19 and seldom below 2.99.
In this assay the parent's reference entry averaged 0.65; its copy inside this library read 1.68.